# Experimental data from ChEMBL document CHEMBL1151740, “Structurally constrained hybrid derivatives containing octahydrobenzo[g or f]quinoline moieties for dopamine D2 and D3 receptors: binding characterization at D2/D3 receptors and elucidation of a pharmacophore model” (J Med Chem, 2008).
# Chains of the proteins cited; added tags and fusions are not shown.
# UniProt P61169, whole entry: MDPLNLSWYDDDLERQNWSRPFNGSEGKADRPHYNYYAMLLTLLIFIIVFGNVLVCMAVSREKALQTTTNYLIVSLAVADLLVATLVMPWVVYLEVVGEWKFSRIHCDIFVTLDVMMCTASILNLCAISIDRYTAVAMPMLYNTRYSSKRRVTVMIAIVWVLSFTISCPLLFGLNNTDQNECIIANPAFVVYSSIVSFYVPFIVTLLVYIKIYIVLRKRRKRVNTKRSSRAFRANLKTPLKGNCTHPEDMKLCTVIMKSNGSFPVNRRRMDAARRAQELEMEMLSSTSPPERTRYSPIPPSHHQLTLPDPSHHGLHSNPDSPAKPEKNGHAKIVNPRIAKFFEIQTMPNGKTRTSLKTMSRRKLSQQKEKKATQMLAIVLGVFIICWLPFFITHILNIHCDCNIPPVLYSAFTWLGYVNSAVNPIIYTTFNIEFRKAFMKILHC
# Target: D(2) dopamine receptor (Rattus norvegicus, UniProt P61169)
# Assay: Displacement of [3H]Spiperone from rat dopamine D2L receptor expressed in HEK293 cells
# Type: cell-based
row,Compound,Ki
1,CCCN(CCN1CCN(c2ccccc2)CC1)[C@H]1CCc2c(O)cccc2C1,26 nM
2,CCCN(CCN1CCN(c2ccccc2)CC1)[C@@H]1CCc2c(O)cccc2C1,238 nM
